Measured values as given in patent US7119100B2 (priority 2001, dated 2006).

Tests used:
Swiss mice [1] = details: male, mouse, in vivo
Swiss mice [2] = details: mouse, in vivo
Wister rats = details: rat, in vivo

What does the source list for CN1CC[C@]23c4c5ccc(O)c4O[C@H]2[C@@H](O)C=C[C@H]3[C@H]1C5 [morphine]?
Percent of jumping (Swiss mice [1]): 100%; Number of jumping (Swiss mice [1]; sc): 49.5 ± 56.0; loss weight (Swiss mice [1]; sc): 1.6 ± 0.2 g; Time spent in drug-paired place (Swiss mice [2]; male, Swiss, 10 mg/kg): 566.6 ± 131.1 min; induction of Conditioned Place Preference (Swiss mice [2]): induced significant Conditioned Place Preference; number of total abstinence signs compared with saline group (Wister rats): significant increase
